Patent publication US20150004134A1, “TREATMENT OF CANCER WITH HETEROCYCLIC INHIBITORS OF GLUTAMINASE” (Calithera Biosciences, Inc., priority 2012, published 2015)

Target: T1, recombinant form of Glutaminase 1 (GAC) (Homo sapiens, UniProt O94925)
T1 sequence (O94925 137-598 isoform O94925-3 limits assumed): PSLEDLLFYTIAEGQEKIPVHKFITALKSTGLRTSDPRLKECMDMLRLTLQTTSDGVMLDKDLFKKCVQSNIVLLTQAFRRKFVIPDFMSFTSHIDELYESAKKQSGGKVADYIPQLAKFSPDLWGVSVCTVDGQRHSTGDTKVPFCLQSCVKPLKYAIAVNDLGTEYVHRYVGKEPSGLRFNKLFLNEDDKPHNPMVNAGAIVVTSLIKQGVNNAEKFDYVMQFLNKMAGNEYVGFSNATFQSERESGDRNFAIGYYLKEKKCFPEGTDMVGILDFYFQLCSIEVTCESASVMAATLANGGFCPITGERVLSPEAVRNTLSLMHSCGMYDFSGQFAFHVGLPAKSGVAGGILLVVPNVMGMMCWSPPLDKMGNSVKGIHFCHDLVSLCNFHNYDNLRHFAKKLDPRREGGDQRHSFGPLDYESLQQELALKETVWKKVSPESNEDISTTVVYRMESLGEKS
Assay: Recombinant Enzyme Assay - Time Dependence (60 min preincubation)
Format: biochemical
Details: not given
Method: The enzyme/compound mix was sealed with sealing foil (USA Scientific) and allowed to incubate, with mild agitation, for 60 minutes at 20° C. Enzymatic reaction was started with the addition of 50 μL of substrate solution (50 mM Tris-HCl pH 8.0, 0.2 mM EDTA, 150 mM K2HPO4, 0.1 mg/ml BSA, 1 mM DTT, 20 mM L-glutamine, 2 mM NAD^+, and 10 ppm antifoam) and read in a Molecular Devices M5 plate reader at 20° C. The plate reader was configured to read absorbance (=340 nm) in kinetic mode for 15 minutes. Data was recorded as milli-absorbance units per minute and slopes were compared to a control compound and a DMSO-only control on the same plate. Compounds with slopes less than the DMSO control were considered inhibitors and plate variability was assessed using the control compound.

SMILES | IC50
CS(=O)(=O)CCCOc1cccc(CC(=O)Nc2ccc(CCCCc3nnc(NC(=O)Cc4ccccc4)s3)nn2)c1 [Compound 623] | 3 nM

Same assay, conditions: read-out: GAC Delta N2 IC50 60 min preinc

SMILES | IC50
CC(C)(C)OC(=O)NCc1cccc(CC(=O)Nc2nnc(CCCCc3nnc(NC(=O)Cc4cccc(CNC(=O)OC(C)(C)C)c4)s3)s2)c1 [Compound 324] | 11 nM
CC(C)(C)OC(=O)Nc1cccc(CC(=O)Nc2nnc(CCCCc3ccc(NC(=O)Cc4ccccc4)nn3)s2)c1 [Compound 399] | 5 nM
O=C(Cc1ccccc1)Nc1ccc(CCCCc2nnc(NC(=O)NC3CCCC3)s2)nn1 [Compound 403] | 18 nM
O=C(Cc1ccccc1)Nc1nnc(CCCCc2ccc(NC(=O)NCc3ccccc3)nn2)s1 [Compound 405] | 81 nM
NCc1ccc(CC(=O)Nc2nnc(CCCCc3ccc(NC(=O)Cc4ccccc4)nn3)s2)cc1 [Compound 407] | 12 nM
Nc1cccc(CC(=O)Nc2nnc(CCCCc3ccc(NC(=O)Cc4ccccc4)nn3)s2)c1 [Compound 409] | 8 nM
O=C(Cc1ccccc1)Nc1ccc(CCCCc2nnc(NC(=O)C(O)c3cccc(Br)c3)s2)nn1 (stereo not shown) [Compound 415] | 6 nM
CCNC(=O)Nc1ccc(CCCCc2nnc(NC(=O)Cc3cccc(CNC(=O)OC(C)(C)C)c3)s2)nn1 [Compound 420] | 13 nM
CC(=O)Nc1ccc(CC(=O)Nc2nnc(CCCCc3ccc(NC(=O)Cc4ccccc4)nn3)s2)cc1 [Compound 426] | 11 nM
O=C(Cc1ccccc1)Nc1ccc(CCCCc2nnc(NC(=O)Cc3cccc(OCCO)c3)s2)nn1 [Compound 427] | 7 nM
COCCOc1cccc(CC(=O)Nc2nnc(CCCCc3ccc(NC(=O)Cc4ccccc4)nn3)s2)c1 [Compound 428] | 7 nM
O=C(Cc1ccccc1)Nc1ccc(CCCCc2nnc(NC(=O)Cc3cccc(CNC(=O)c4ccccc4)c3)s2)nn1 [Compound 432] | 2 nM
O=C(Cc1ccccc1)NCc1cccc(CC(=O)Nc2nnc(CCCCc3ccc(NC(=O)Cc4ccccc4)nn3)s2)c1 [Compound 435] | 2 nM
O=C(Cc1cccc(Cl)c1)Nc1ccc(CCCCc2nnc(NC(=O)C(O)c3cccc(Cl)c3)s2)nn1 (stereo not shown) [Compound 448] | 5 nM
O=C(Cc1ccccc1)Nc1ccc(CCCCc2nnc(NC(=O)Cc3cccc(CNC(=O)C(F)(F)F)c3)s2)nn1 [Compound 458] | 3 nM
CC(=O)NCc1cccc(CC(=O)Nc2nnc(CCCCc3ccc(NC(C)=O)nn3)s2)c1 [Compound 459] | 48 nM
CC(=O)Nc1ccc(CCCCc2nnc(NC(=O)Cc3cccc(CNC(=O)CC(C)C)c3)s2)nn1 [Compound 461] | 11 nM
CC(C)(C)OC(=O)NCc1ccccc1CC(=O)Nc1nnc(CCCCc2ccc(NC(=O)Cc3ccccc3)nn2)s1 [Compound 464] | 5 nM
COc1cccc(CC(=O)Nc2ccc(CCCCc3nnc(NC(=O)C(O)c4cccc(Cl)c4)s3)nn2)c1 (stereo not shown) [Compound 467] | 5 nM
O=C(Cc1ccccc1)Nc1ccc(CCCCc2nnc(NC(=O)Cc3cccc(CC(=O)N4CCC(F)(F)CC4)c3)s2)nn1 [Compound 474] | 3 nM
O=C(Cc1ccccc1)Nc1ccc(CCCCc2nnc(NC(=O)Cc3cccc(CN4CCCCC4=O)c3)s2)nn1 [Compound 476] | 4 nM
C[C@@](O)(C(=O)NCc1cccc(CC(=O)Nc2nnc(CCCCc3ccc(NC(=O)Cc4ccccc4)nn3)s2)c1)C(F)(F)F [Compound 477] | 5 nM
CN(C)CC(=O)Nc1ccc(CCCCc2nnc(NC(=O)Cc3cccc(CNC(=O)OC(C)(C)C)c3)s2)nn1 [Compound 478] | 18 nM
O=C(Cc1ccccc1)Nc1ccc(CCCCc2nnc(NC(=O)Cc3cccc(CN4CCCC4=O)c3)s2)nn1 [Compound 479] | 5 nM
CC(=O)Nc1nnc(CCCCc2ccc(NC(=O)Cc3cccc(CNC(=O)OC(C)(C)C)c3)nn2)s1 [Compound 491] | 8 nM

SMILES | IC50
CCCCNC(=O)Cc1cccc(CC(=O)Nc2nnc(CCCCc3ccc(NC(=O)Cc4ccccc4)nn3)s2)c1 [Compound 496] | 3 nM
O=C(Cc1ccccc1)Nc1ccc(CCCCc2nnc(NC(=O)Cc3cccc4[nH]ncc34)s2)nn1 [Compound 512] | 5 nM
COc1cc(CC(=O)Nc2nnc(CCCCc3ccc(NC(=O)Cc4ccccc4)nn3)s2)ccc1F [Compound 515] | 7 nM
COc1ccccc1CC(=O)Nc1nnc(CCCCc2ccc(NC(=O)Cc3ccccc3Cl)nn2)s1 [Compound 531] | 6 nM
O=C(Cc1ccccc1F)Nc1ccc(CCCCc2nnc(NC(=O)Cc3ccccc3F)s2)nn1 [Compound 534] | 8 nM
COc1cc(CC(=O)Nc2ccc(CCCCc3nnc(NC(=O)Cc4ccccc4)s3)nn2)ccc1F [Compound 537] | 7 nM
CC(NC(=O)OC(C)(C)C)c1cccc(CC(=O)Nc2nnc(CCCCc3ccc(NC(=O)Cc4ccccc4)nn3)s2)c1 (stereo not shown) [Compound 541] | 4 nM
O=C(Cc1ccccc1)Nc1ccc(CCCCc2nnc(NC(=O)Cc3cccc(Cl)c3F)s2)nn1 [Compound 545] | 6 nM
COc1cc(CC(=O)Nc2nnc(CCCCc3ccc(NC(=O)Cc4ccccc4)nn3)s2)ccc1O [Compound 554] | 8 nM
CC(N)c1cccc(CC(=O)Nc2ccc(CCCCc3nnc(NC(=O)Cc4ccccc4)s3)nn2)c1 (stereo not shown) [Compound 560] | 10 nM
CC(C)(C)OC(=O)NCc1cccc(CC(=O)Nc2ccc(CCCCc3nnc(NC(=O)Cc4cccc(CNC(=O)OC(C)(C)C)c4)s3)nn2)c1 [Compound 571] | 11 nM
CCOC(=O)NCc1cccc(CC(=O)Nc2ccc(CCCCc3nnc(NC(=O)Cc4cccc(CNC(=O)OCC)c4)s3)nn2)c1 [Compound 572] | 3 nM
COc1ccc(CC(=O)Nc2nnc(CCCCc3ccc(NC(=O)Cc4ccccc4)nn3)s2)cc1O [Compound 582] | 5 nM
Nc1ccc(CCCCc2nnc(NC(=O)Cc3cccc(OC(F)(F)F)c3)s2)nn1 [Compound 584] | 220 nM
COC(=O)NC(C)c1cccc(CC(=O)Nc2ccc(CCCCc3nnc(NC(=O)Cc4ccccc4)s3)nn2)c1 (stereo not shown) [Compound 589] | 4 nM
CCNC(=O)OC(C)c1cccc(CC(=O)Nc2ccc(CCCCc3nnc(NC(=O)Cc4ccccc4)s3)nn2)c1 (stereo not shown) [Compound 610] | 5 nM
CC(O)c1cccc(CC(=O)Nc2ccc(CCCCc3nnc(NC(=O)Cc4ccccc4)s3)nn2)c1 (stereo not shown) [Compound 611] | 6 nM
O=C(O)Cc1cccc(OCC(=O)Nc2nnc(CCCCc3ccc(NC(=O)Cc4ccccc4)nn3)s2)c1 [Compound 627] | 28 nM
COC(=O)Cc1cccc(OCC(=O)Nc2nnc(CCCCc3ccc(NC(=O)Cc4ccccc4)nn3)s2)c1 [Compound 628] | 27 nM
CS(=O)(=O)Cc1cccc(CC(=O)Nc2nnc(CCCCc3ccc(NC(=O)Cc4ccccc4)nn3)s2)c1 [Compound 634] | 6 nM
Cc1noc(Cc2cccc(CC(=O)Nc3ccc(CCCCc4nnc(NC(=O)Cc5ccccc5)s4)nn3)c2)n1 [Compound 648, 2-(3-((3-methyl-1,2,4-oxadiazol-5-yl)methyl)phenyl)-N-(6-(4-(5-(2-phenylacetamido)-1,3,4-thiadiazol-2-yl)butyl)pyridazin-3-yl)acetamide] | 4 nM
O=C(Cc1ccccc1)Nc1ccc(CCCCc2nnc(NC(=O)Cc3cccc4c3CNC4)s2)nn1 [Compound 650] | 13 nM
CC(=O)N1Cc2cccc(CC(=O)Nc3nnc(CCCCc4ccc(NC(=O)Cc5ccccc5)nn4)s3)c2C1 [Compound 651] | 6 nM
Cc1nnc(Cc2cccc(CC(=O)Nc3ccc(CCCCc4nnc(NC(=O)Cc5ccccc5)s4)nn3)c2)o1 [Compound 652, 2-(3-((5-methyl-1,3,4-oxadiazol-2-yl)methyl)phenyl)-N-(6-(4-(5-(2-phenylacetamido)-1,3,4-thiadiazol-2-yl)butyl)pyridazin-3-yl)acetamide] | 4 nM
O=C(Cc1ccccc1)Nc1ccc(CCCCc2nnc(NC(=O)Cc3cccc(OC(F)F)c3)s2)nn1 [Compound 664] | 5 nM

Target: T1, recombinant form of Glutaminase 1 (GAC)
Assay: Recombinant Enzyme Assay (no preincubation);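 also: GDH-coupled GAC activity read as absorbance at 340 nm in kinetic mode over 15 min at 20 °C, slopes compared with a DMSO-only control, lower slope means inhibition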
Format: biochemical
Details: read-out: GAC Delta N2 IC50 no preinc

SMILES | IC50
COc1cccc(CC(=O)Nc2nnc(CCSCCc3nnc(NC(=O)Cc4cccc(OC)c4)s3)s2)c1 [Compound 156] | 120 nM
N[C@H](C(=O)Nc1nnc(CCCCc2nnc(NC(=O)[C@@H](N)c3ccccc3)s2)s1)c1ccccc1 [Compound 187] | 2800 nM
O=C(Cc1cccc(OCCO)c1)Nc1nnc(CCSCCc2nnc(NC(=O)Cc3cccc(OCCO)c3)s2)s1 [Compound 236] | 200 nM
O=C(Cc1ccccc1)Nc1ccc(CCCCc2nnc(NC(=O)Cc3cccc(Cl)c3)s2)nn1 [Compound 335] | 62 nM
Nc1nnc(CCCCc2ccc(NC(=O)Cc3ccccc3)nn2)s1 [Compound 342] | 1400 nM
Nc1ccc(CCCCc2nnc(NC(=O)Cc3ccccc3)s2)nn1 [Compound 348, N-(5-(4-(6-aminopyridazin-3-yl)butyl)-1,3,4-thiadiazol-2-yl)-2-phenylacetamide] | 1000 nM
O=C(Cc1ccccc1)Nc1ccc(CCCCc2nnc(NC(=O)[C@H](O)c3ccccc3)s2)nn1 [Compound 349] | 120 nM
